## Antibody variant affinities, Ab-91 heavy chain, assay 2

From the AlphaSeq antibody data of Engelhart et al. 2022 (doi:10.1038/s41597-022-01779-4), copy in the FLAb collection.

All variants were tested on one target, the spike HR2 peptide PDVDLGDISGINAS (SARS-CoV-2).

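Phage display of a naive human antibody library on the peptide gave the parent. The library (AAYL51) carries one to three amino acid substitutions per variant, with no insertions or deletions. The assay is AlphaSeq: two haploid yeast populations carry antibody and antigen on their surface. Pairs that bind mate more often; barcode pairs of the diploids are counted by sequencing. Read counts were normalised to the haploid input and turned into Kd by a linear fit to BCL2-family pairs of known affinity, for each replicate. Each pool was mated in three replicate cultures.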

Parent scFv Ab-91: VL joined to VH by a (GGGGS)3 linker. Changes lie in the heavy chain CDRs alone.
VL: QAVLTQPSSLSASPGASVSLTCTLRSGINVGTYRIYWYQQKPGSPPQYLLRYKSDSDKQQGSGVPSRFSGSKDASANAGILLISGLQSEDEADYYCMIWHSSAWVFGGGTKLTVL
VH: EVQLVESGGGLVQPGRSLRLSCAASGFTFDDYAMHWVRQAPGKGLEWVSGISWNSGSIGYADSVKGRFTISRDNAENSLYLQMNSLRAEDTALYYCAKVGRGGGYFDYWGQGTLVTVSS

Variants are written as CDR1, CDR2 and CDR3 of the heavy chain (limits as in the source). Parent: GFTFDDYAMH, GISWNSGSIGYADSVK, VGRGGGYFDY.
Numbers give log10(Kd / nM), so 0 is 1 nM and 3 is 1 µM. Smaller is tighter.
A mean of the replicates is given; it leaves out those without a signal.
An entry "n.d." has no value in the source: the pair was not observed among the diploids in that replicate. This suggests poor binding but is not conclusive.

| # | CDR-H1 | CDR-H2 | CDR-H3 | replicates, log10 nM | mean log10 Kd (nM) | signal with controls |
|---|---|---|---|---|---|---|
| 1 | GFTFDDYAMH | GTSWNSLSIGYADPVK | VGRGGGYFDY | 1.98 1.75 1.51 | 1.75 | 2 of 9 (4.91) |
| 2 | GFTFDDYAMQ | GISWNSGSIGYADSVK | VGRGHGVFDY | 5.60 n.d. n.d. | 5.60 | 4 of 9 (4.37) |
| 3 | GFTFDDYAMH | GISWNSGSIGYADSVK | VGRFGWPFDY | 6.12 5.66 5.33 | 5.70 | 7 of 9 (5.75) |
| 4 | GFGFDDYAMQ | GISWNGGSIGYADSVK | VGRGGGYFDY | n.d. n.d. n.d. | n.d. | 1 of 9 (2.95) |
| 5 | GFTFYDYAMH | GISWNSGSINYADSVK | VGRGGGYFDY | 3.71 n.d. n.d. | 3.71 | 2 of 9 (3.77) |
| 6 | GYTFDLYAMH | GISWNSTSIGYADSVK | VGRGGGYFDY | n.d. n.d. n.d. | n.d. | 2 of 9 (3.24) |
| 7 | GFTFDDYAMI | GISWNSMSIGYADSVK | PGRGGGYFDY | 5.51 4.27 5.09 | 4.96 | 6 of 9 (5.26) |
| 8 | GFAFDDYAMA | GISWNSGSIGYADSVK | VGRHGGYFDY | n.d. n.d. n.d. | n.d. | 0 of 9 |
| 9 | GHTFDDYAMH | GISWNSGQIGYADSVK | VGRGGGYFDY | 3.86 n.d. n.d. | 3.86 | 1 of 9 (4.00) |
| 10 | GQTFDDYAMH | GISWNSGSIGPLDSVK | VGRGGGYFDY | n.d. n.d. 4.19 | 4.19 | 3 of 9 (4.47) |
| 11 | GFTWDDYRMH | GISWNSGSIIYADSVK | VGRGGGYFDY | n.d. n.d. n.d. | n.d. | 2 of 9 (4.80) |
| 12 | GFTFDDYAMH | GISWCSQSIGYADSVK | VGRGGGYFDY | 4.07 n.d. n.d. | 4.07 | 0 of 9 |
| 13 | GFTFDDYAMH | GISWNSGSIGYGDSVK | VGRWGGYFWY | 1.27 1.17 0.42 | 0.95 | 0 of 9 |
| 14 | GATFDDPAMH | GISWNSGSIGYARSVK | VGRGGGYFDY | n.d. 5.49 n.d. | 5.49 | 1 of 9 (3.57) |
| 15 | GCTFDDYWVH | GISWNSGSIGYADSVK | VGRGGGYFDY | n.d. n.d. n.d. | n.d. | 2 of 9 (3.90) |
| 16 | GFTKDDLAMH | GISWNGGSIGYADSVK | VGRGGGYFDY | 1.11 1.08 0.62 | 0.94 | 0 of 9 |
| 17 | GFTFDDYAMH | GISWNSGSIGYADSQK | VGFFGGYFDY | n.d. n.d. n.d. | n.d. | 0 of 9 |
| 18 | GFTFDDTAMH | GVSWNRGSIGYADSVK | VGRGGGYFDY | n.d. n.d. n.d. | n.d. | 2 of 9 (4.00) |
| 19 | GPTFDDYAMH | GISWNSGSIIYADSGK | VGRGGGYFDY | n.d. n.d. n.d. | n.d. | 1 of 9 (4.46) |
| 20 | GFTFDDYAMH | GISVNSGSIGMADSVK | TGRGGGYFDY | 3.76 3.63 3.67 | 3.69 | 7 of 9 (5.20) |
| 21 | GFTFDDYAMH | DPSWNSGSIGYADSVK | VGRGGCYFDY | n.d. n.d. n.d. | n.d. | 0 of 9 |
| 22 | GFTFDDYAMH | GVSWNSGSIGYATSVK | VGRWGGYFDY | n.d. 4.92 n.d. | 4.92 | 6 of 9 (5.38) |
| 23 | GFTFDDYAMH | GISWNSGGIWYADSVK | VGRGRGYFDY | n.d. n.d. n.d. | n.d. | 0 of 9 |
| 24 | GFTFDDYFMH | GISWNSGSIGWADSVK | GGRGGGYFDY | n.d. n.d. n.d. | n.d. | 0 of 9 |
| 25 | GFTFDTYAMH | GISWNHGSIGYADSVK | VGRGGGYFDY | 4.48 3.35 5.01 | 4.28 | 4 of 9 (4.43) |
| 26 | GFQFDDRAMH | GISWNSGSIDYADSVK | VGRGGGYFDY | 3.09 4.12 n.d. | 3.61 | 1 of 9 (3.67) |
| 27 | GFTFDDYAMH | GISWNRGSIRYADSVK | VGRGGGYFDG | n.d. n.d. n.d. | n.d. | 0 of 9 |
| 28 | GFTFDDYAMH | GISWNSASIGYADSVK | VARGYGYFDY | 1.13 1.12 0.63 | 0.96 | 2 of 9 (4.95) |
| 29 | GFTFDDYAMH | GFLWNSGSIGYADSAK | VGRGGGYFDY | n.d. n.d. n.d. | n.d. | 0 of 9 |
| 30 | GNTFDVYPMH | GISWNSGSIGYADSVK | VGRGGGYFDY | n.d. n.d. n.d. | n.d. | 0 of 9 |
| 31 | MFTFDDYAMH | GIEWNSGSIGYADSVK | VGRGGGYFSY | n.d. n.d. 2.62 | 2.62 | 1 of 9 (3.43) |
| 32 | GFTFDDYAMT | GISWNSGSIGYADSVF | VGRGGGYFVY | 5.36 n.d. n.d. | 5.36 | 4 of 9 (5.36) |
| 33 | GFTFDDYAMH | GISWLSGSIGYADSVK | VGRGGGEFIY | n.d. n.d. n.d. | n.d. | 0 of 9 |
| 34 | GFTFDDYAMH | GISWNRGSIGAADSVK | VGSGGGYFDY | n.d. n.d. n.d. | n.d. | 0 of 9 |
| 35 | GFTFDDYAMH | GICWNSMSIGYADGVK | VGRGGGYFDY | n.d. n.d. n.d. | n.d. | 2 of 9 (3.98) |
| 36 | GFTFDDYAMH | GISMNSGSIGYADSVK | VGYGGGDFDY | n.d. 4.66 n.d. | 4.66 | 1 of 9 (3.91) |
| 37 | GFTFDWYAMH | GISWNSGSIGYQDSVK | VGRGGVYFDY | n.d. n.d. n.d. | n.d. | 0 of 9 |
| 38 | EFTYDDYAMH | GISWNSGSIGYADSVK | PGRGGGYFDY | n.d. n.d. 4.79 | 4.79 | 3 of 9 (4.74) |
| 39 | GFHFDDYAIH | GCSWNSGSIGYADSVK | VGRGGGYFDY | n.d. 4.13 n.d. | 4.13 | 2 of 9 (5.63) |
| 40 | GFTFWDYAMH | GISWNDGSIGYADSVK | VGRGGGYFQY | 5.23 5.14 n.d. | 5.19 | 3 of 9 (4.65) |
| 41 | GFTDDDYAMH | GISWNSGSIGYADSVK | VGRGGVYFDY | n.d. n.d. n.d. | n.d. | 0 of 9 |

Extract of 2 entries:

CDR-H1	CDR-H2	CDR-H3	replicates, log10 nM	mean log10 Kd (nM)	signal with controls
GFTFDDYAMH	GISWLSGSIGYADSVK	VGRGGGEFIY	n.d. n.d. n.d.	n.d.	0 of 9
GFTWDDYRMH	GISWNSGSIIYADSVK	VGRGGGYFDY	n.d. n.d. n.d.	n.d.	2 of 9 (4.80)

Three control strains display no target. For library AAYL51, 21% of the pairings with them gave a signal, with a median of 4.54 and one signal in twenty below 3.26, so weak values seen in few replicates may be background. For each scFv, signals with the empty controls are counted beside the result, with their mean in brackets.
In this assay the parent's reference entry averaged 1.86; its copy inside this library read 0.88.